This assay concerns fully infectious HIV-1 BaL virions. The experiment in a line: infection inhibition, fully infectious HIV-1 BaL (p24 ELISA). As to conditions: read-out: Viral inactivation EC50 (*, fully infectious), HOS CD4^+ve CCR5^+ve cells, 30 min pre-treatment at 37°C, p24 ELISA after 48 h, ± SD. (In general: An ELISA detects its analyte on a solid surface through an enzyme-linked reagent.)

SMILES strings stand for the structures.

Usually EC50 stands for the concentration at which the effect is half-maximal. Take `CC[C@H](C)[C@H](NC(=O)[C@@H](N)CCCNC(=N)N)C(=O)N[C@@H](CC(N)=O)C(=O)N[C@@H](CC(N)=O)C(=O)N[C@H](C(=O)N1C[C@@H](n2cc([C]34[CH]5[CH]6[CH]7[CH]3[Fe]6754389%10[CH]4[CH]3[CH]8[CH]9[CH]4%10)nn2)C[C@H]1C(=O)N[C@@H](Cc1c[nH]c2ccccc12)C(=O)N[C@@H](CO)C(=O)N[C@@H](CCC(=O)O)C(=O)N[C@@H](C)C(=O)N[C@@H](CCSC)C(=O)N[C@@H](CCSC)C(N)=O)[C@@H](C)CC` (some centres unmarked) [HNG156]: the EC50 was determined as 5.5 µM. The value for `CC[C@H](C)[C@H](NC(=O)[C@@H](N)CCCNC(=N)N)C(=O)N[C@@H](CC(N)=O)C(=O)N[C@@H](CC(N)=O)C(=O)N[C@H](C(=O)N1C[C@@H](n2cc([C]34[CH]5[CH]6[CH]7[CH]3[Fe]6754389%10[CH]4[CH]3[CH]8[CH]9[CH]4%10)nn2)C[C@H]1C(=O)N[C@@H](Cc1c[nH]c2ccccc12)C(=O)N[C@@H](CO)C(=O)N[C@@H](CCC(=O)O)C(=O)N[C@@H](C)C(=O)N[C@@H](CCSC)C(=O)N[C@@H](CCSC)C(=O)NCCC(=O)N[C@@H](CCC(N)=O)C(=O)NCCC(=O)N[C@@H](CS)C(N)=O)[C@@H](C)CC` (some centres unmarked) [KR13] was 0.639 µM.

For the origin of these results see PMC3878761, “Interactions of peptide triazole thiols with Env gp120 induce irreversible breakdown and inactivation of HIV-1 virions” (Retrovirology, 2013).
